Experimental findings from ChEMBL document CHEMBL1125016, “Synthesis and evaluation of N-substituted cis-N-methyl-2-(1-pyrrolidinyl)cyclohexylamines as high affinity sigma receptor ligands. Identification of a new class of highly potent and selective sigma receptor probes” (1990) are described below.

The chains behind the UniProt entries cited, without tags or fusion partners.
UniProt P41144, whole entry: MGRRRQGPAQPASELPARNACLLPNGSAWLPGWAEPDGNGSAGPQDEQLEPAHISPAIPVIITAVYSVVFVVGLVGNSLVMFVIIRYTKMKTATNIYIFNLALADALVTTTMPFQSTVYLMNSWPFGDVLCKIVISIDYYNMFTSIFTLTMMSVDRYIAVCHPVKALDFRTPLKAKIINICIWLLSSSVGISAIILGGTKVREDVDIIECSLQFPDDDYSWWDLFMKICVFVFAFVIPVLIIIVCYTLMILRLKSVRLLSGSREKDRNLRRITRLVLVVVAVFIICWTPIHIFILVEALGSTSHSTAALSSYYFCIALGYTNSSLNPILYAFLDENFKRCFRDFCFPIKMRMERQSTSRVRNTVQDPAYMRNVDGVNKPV

Experiment [1] deals with Kappa-type opioid receptor (Cavia porcellus) (UniProt P41144). Nature of the experiment: Binding affinity against opioid receptor kappa 1 using with [3H]bremazocine as radioligand.
The target is the same in experiment [2]. Kind of experiment: Binding affinity against opioid receptor kappa 1 using [3H]U-69593 as a radioligand.

On to `CN(C(=O)Cc1ccc(Cl)cc1Cl)[C@@H]1CCCC[C@@H]1N1CCCC1`, for which the Control in experiment [1] was 93%; in experiment [2], 27.2%.
Turning to `CN(/C(S)=N/c1ccc(Cl)c(Cl)c1)[C@@H]1CCCC[C@@H]1N1CCCC1`, the figures for the Control in experiment [1] and in experiment [2] were 100% and 68.7%, respectively.
The matching figures for `CN(C(=O)OCc1ccccc1)[C@@H]1CCCC[C@@H]1N1CCCC1`: 98.3% and 95%.
`CN(C(=O)Cc1cccc(Cl)c1)[C@@H]1CCCC[C@@H]1N1CCCC1` yielded a Control in experiment [2] of 42.7%.
In experiment [2], `CN(C(=O)Cc1ccc([N+](=O)[O-])cc1)[C@@H]1CCCC[C@@H]1N1CCCC1` came in with a Control of 51.6%.
In experiment [2], `CN(C(=O)Cc1ccc(Br)cc1)[C@@H]1CCCC[C@@H]1N1CCCC1` yielded a Control of 32.8%.
In the case of `CN(C(=O)Cc1ccccc1[N+](=O)[O-])[C@@H]1CCCC[C@@H]1N1CCCC1`, the Control in experiment [2] turned out to be 78.3%.
`CN(C(=O)Cc1cccc2ccccc12)[C@H]1CCCC[C@H]1N1CCCC1`: the Control was 96.1% in experiment [1] and 16.1% in experiment [2].
In turn, `CN(C(=O)Cc1ccc(Cl)cc1)[C@@H]1CCCC[C@@H]1N1CCCC1` displayed a Control in experiment [2] of 39.6%.
Same read-out and setting: under `CN(C(=O)Nc1ccc(Cl)c(Cl)c1)[C@@H]1CCCC[C@@H]1N1CCCC1` stands 43.9%.
Consider `CC(=O)N(C)[C@H]1CCCC[C@H]1N1CCCC1`, for which the Control in experiment [1] turned out to be 112%; in experiment [2] it was 96.5%.
Regarding `CN(C(=O)Cc1ccsc1)[C@H]1CCCC[C@H]1N1CCCC1`, the Control in experiment [2] was 73.9%.
In experiment [2], `CN(C(=O)Cc1ccccc1)[C@@H]1CCCC[C@@H]1N1CCCC1` showed a Control of 69.5%.
With `CN(C(=O)Cc1cc(Cl)c(Cl)cc1N)[C@@H]1CCCC[C@@H]1N1CCCC1`, the Control worked out at 95.2% in experiment [1] and 8.18% in experiment [2].
The matching figures for `CN(C(=O)Cc1c(Cl)cccc1Cl)[C@@H]1CCCC[C@@H]1N1CCCC1`: 104% and 18.9%.
With `CN(C(=O)Cc1ccccc1Cl)[C@@H]1CCCC[C@@H]1N1CCCC1`, the figures for the Control in experiment [1] and in experiment [2] were 104% and 51%, respectively.
In the case of `CN(C(=O)Cc1cc(Cl)c(Cl)cc1[N+](=O)[O-])[C@@H]1CCCC[C@@H]1N1CCCC1`, the Control was determined as 92.2% in experiment [1] and 3.78% in experiment [2].
The matching figures for `CN(C(=O)Cc1cccnc1)[C@H]1CCCC[C@H]1N1CCCC1`: 93.3% and 91.8%.
`CN(C(=O)Cc1cccc([N+](=O)[O-])c1)[C@@H]1CCCC[C@@H]1N1CCCC1` gave a Control in experiment [2] of 28%.
